{
  "sequences": {"note": "The chains behind the UniProt entries cited, without tags or fusion partners.", "UniProt P08183, whole entry": "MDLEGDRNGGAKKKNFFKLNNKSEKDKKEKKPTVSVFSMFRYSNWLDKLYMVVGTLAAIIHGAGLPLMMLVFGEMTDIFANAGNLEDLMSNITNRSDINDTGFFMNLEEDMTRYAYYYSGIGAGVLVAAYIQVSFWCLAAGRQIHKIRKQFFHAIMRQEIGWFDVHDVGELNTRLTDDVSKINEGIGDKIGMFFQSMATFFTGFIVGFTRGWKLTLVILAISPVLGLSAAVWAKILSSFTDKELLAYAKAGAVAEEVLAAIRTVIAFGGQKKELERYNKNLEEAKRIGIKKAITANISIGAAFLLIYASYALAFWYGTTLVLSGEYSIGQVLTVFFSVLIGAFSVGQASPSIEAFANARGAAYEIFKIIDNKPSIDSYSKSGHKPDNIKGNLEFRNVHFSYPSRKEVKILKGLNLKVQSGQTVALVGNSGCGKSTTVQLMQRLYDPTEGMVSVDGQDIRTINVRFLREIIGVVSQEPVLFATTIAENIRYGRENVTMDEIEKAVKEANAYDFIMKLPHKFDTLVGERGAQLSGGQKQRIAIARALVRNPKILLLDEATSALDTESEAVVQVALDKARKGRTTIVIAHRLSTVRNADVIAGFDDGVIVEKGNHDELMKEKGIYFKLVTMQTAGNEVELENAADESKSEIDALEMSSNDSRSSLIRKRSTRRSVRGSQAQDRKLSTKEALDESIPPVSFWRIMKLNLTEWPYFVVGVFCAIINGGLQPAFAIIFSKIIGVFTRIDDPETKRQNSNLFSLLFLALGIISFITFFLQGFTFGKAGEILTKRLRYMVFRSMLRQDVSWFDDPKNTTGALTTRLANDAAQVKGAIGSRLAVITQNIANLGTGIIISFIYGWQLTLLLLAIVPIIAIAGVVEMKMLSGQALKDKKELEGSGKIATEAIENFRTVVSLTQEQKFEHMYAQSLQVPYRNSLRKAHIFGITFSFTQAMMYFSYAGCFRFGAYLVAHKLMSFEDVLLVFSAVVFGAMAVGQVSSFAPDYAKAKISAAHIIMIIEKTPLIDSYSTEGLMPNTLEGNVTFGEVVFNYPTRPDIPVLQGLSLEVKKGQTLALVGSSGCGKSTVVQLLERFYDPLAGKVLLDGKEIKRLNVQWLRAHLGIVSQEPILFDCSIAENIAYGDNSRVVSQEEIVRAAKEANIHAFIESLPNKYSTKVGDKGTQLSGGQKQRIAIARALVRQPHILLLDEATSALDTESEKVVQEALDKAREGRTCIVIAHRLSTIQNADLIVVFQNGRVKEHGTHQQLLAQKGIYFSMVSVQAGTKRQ"},
  "source": "patent US20120010161A1",
  "about": "“NOVEL AZAPEPTIDE OR AZAPEPTIDOMIMETIC COMPOUNDS INHIBITING BCRP AND/OR P-GP” (CENTRE NATIONAL DE LA RECHERCHE SCIENTIFIQUE, priority 2009, published 2012); further: key: the inhibitor is active (+); it is inactive (−); the effect is unknown (?)",
  "origin": "cited, not measured here",
  "target": "ABCB1 (Homo sapiens, UniProt P08183)",
  "conditions": "cited from earlier work",
  "data": [
    {"smiles": "O[C@@H](COc1cccc2ncccc12)CN1CCN([C@@H]2c3ccccc3[C@@H]3[C@H](c4ccccc42)C3(F)F)CC1", "note": "[Ly335979, zosuquidar]", "values": [
      {"measurement": "active or inactive on ABCB1", "value": "+"}
    ]}
  ]
}
